Results from ChEMBL document CHEMBL5038571, “Design and Synthesis of EZH2-Based PROTACs to Degrade the PRC2 Complex for Targeting the Noncatalytic Activity of EZH2” (J Med Chem, 2021).

The chains behind the UniProt entries cited, without tags or fusion partners.
UniProt Q15910, whole entry, looked up: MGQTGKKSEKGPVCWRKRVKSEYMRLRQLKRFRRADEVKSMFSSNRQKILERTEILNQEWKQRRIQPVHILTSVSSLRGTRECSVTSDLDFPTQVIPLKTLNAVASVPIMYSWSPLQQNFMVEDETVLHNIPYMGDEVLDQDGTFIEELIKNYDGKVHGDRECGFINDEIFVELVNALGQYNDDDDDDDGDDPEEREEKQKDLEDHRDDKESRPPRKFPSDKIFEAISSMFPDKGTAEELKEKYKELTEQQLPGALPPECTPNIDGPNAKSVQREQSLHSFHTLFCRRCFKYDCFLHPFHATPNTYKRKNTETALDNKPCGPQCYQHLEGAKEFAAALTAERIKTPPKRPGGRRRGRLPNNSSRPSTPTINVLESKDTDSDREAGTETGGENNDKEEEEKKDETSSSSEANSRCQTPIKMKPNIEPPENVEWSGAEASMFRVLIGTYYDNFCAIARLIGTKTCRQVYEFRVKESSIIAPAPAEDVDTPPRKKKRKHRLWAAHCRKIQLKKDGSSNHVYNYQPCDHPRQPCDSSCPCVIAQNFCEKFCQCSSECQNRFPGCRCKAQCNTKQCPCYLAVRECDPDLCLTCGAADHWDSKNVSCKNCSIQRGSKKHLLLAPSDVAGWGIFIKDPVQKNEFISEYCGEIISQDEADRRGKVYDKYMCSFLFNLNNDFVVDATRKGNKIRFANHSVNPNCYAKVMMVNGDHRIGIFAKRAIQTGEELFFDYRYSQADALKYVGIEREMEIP

Target: Histone-lysine N-methyltransferase EZH2 (Homo sapiens, UniProt Q15910)
Conditions: WSUDLCL2, dose 60.0 µM, time 2.0 hrs

- deltaT: 5 °C
SMILES: CCN(c1cc(-c2ccc(CN3CCN(CCCCCCCOc4cccc5c4C(=O)N(C4CCC(=O)NC4=O)C5=O)CC3)cc2)cc(C(=O)NCc2c(C)cc(C)[nH]c2=O)c1C)C1CCOCC1 (stereo unspecified)
